Data: PubChem BioAssay (NCI)
Some of these compounds have results that are not shown, active ones among them.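 Briefly, cells in 96-well plates were exposed to five compound concentrations for 48 h, and endpoints were estimated by linear interpolation. Abbreviation: GI50, concentration required for 50% inhibition of growth. TGI denotes the concentration required for complete inhibition of growth.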

How the values were obtained:
Experiment in all cases: NCI anticancer screen, dose series, 48 h
[1] = test system: 786-0 renal
[2] = test system: A498 renal
[3] = test system: A549 NSCLC
[4] = test system: ACHN renal
[5] = test system: CAKI-1 renal
[6] = test system: CCRF-CEM leukemia
[7] = test system: COLO 205 colon
[8] = test system: DU-145 prostate
[9] = test system: EKVX NSCLC
[10] = test system: HCC-2998 colon
[11] = test system: HCT-116 colon
[12] = test system: HCT-15 colon
[13] = test system: HL-60(TB) leukemia
[14] = test system: HOP-62 NSCLC
[15] = test system: HOP-92 NSCLC
[16] = test system: HS 578T breast
[17] = test system: HT29 colon
[18] = test system: IGROV1 ovarian
[19] = test system: K-562 leukemia
[20] = test system: KM12 colon
[21] = test system: LOX IMVI melanoma
[22] = test system: M14 melanoma
[23] = test system: MALME-3M melanoma
[24] = test system: MCF7 breast
[25] = test system: MDA-MB-231 breast
[26] = test system: MDA-MB-435
[27] = test system: MOLT-4 leukemia
[28] = test system: NCI-H226 lung
[29] = test system: NCI-H23 lung

## C#CC(O)(C(=O)OC1CN2CCC1CC2)c1ccccc1 (stereo not drawn)
[1]
  GI50: > 100 µM
  TGI: > 100 µM
[2]
  GI50: > 100 µM
  TGI: > 100 µM
[3]
  GI50: > 100 µM
  TGI: > 100 µM
[4]
  GI50: > 100 µM
  TGI: > 100 µM
[5]
  GI50: > 100 µM
  TGI: > 100 µM
[6]
  GI50: > 100 µM
  TGI: > 100 µM
[7]
  GI50: > 100 µM
  TGI: > 100 µM
[8]
  GI50: > 100 µM
  TGI: > 100 µM
[9]
  GI50: > 100 µM
  TGI: > 100 µM
[10]
  GI50: > 100 µM
  TGI: > 100 µM
[11]
  GI50: > 100 µM
  TGI: > 100 µM
[12]
  GI50: > 100 µM
  TGI: > 100 µM
[13]
  GI50: > 100 µM
  TGI: > 100 µM
[14]
  GI50: > 100 µM
  TGI: > 100 µM
[15]
  GI50: > 100 µM
  TGI: > 100 µM
[16]
  GI50: > 100 µM
  TGI: > 100 µM
[17]
  GI50: > 100 µM
  TGI: > 100 µM
[18]
  GI50: > 100 µM
  TGI: > 100 µM
[19]
  GI50: > 100 µM
  TGI: > 100 µM
[20]
  GI50: > 100 µM
  TGI: > 100 µM
[21]
  GI50: > 100 µM
  TGI: > 100 µM
[22]
  GI50: > 100 µM
  TGI: > 100 µM
[23]
  GI50: > 100 µM
  TGI: > 100 µM
[24]
  GI50: > 100 µM
  TGI: > 100 µM
[25]
  GI50: > 100 µM
  TGI: > 100 µM
[26]
  GI50: > 100 µM
  TGI: > 100 µM
[27]
  GI50: > 100 µM
  TGI: > 100 µM
[28]
  GI50: > 100 µM
  TGI: > 100 µM
[29]
  GI50: > 100 µM
  TGI: > 100 µM
